Reference: patent US20130289520A1, “TARGETED AND LIGHT-ACTIVATED CYTOSOLIC DRUG DELIVERY” (CHILDREN'S HOSPITAL BOSTON, priority 2010, published 2013)

By UniProt entry, the sequences of proteins in these tests, tags left out.
UniProt P08183, whole entry: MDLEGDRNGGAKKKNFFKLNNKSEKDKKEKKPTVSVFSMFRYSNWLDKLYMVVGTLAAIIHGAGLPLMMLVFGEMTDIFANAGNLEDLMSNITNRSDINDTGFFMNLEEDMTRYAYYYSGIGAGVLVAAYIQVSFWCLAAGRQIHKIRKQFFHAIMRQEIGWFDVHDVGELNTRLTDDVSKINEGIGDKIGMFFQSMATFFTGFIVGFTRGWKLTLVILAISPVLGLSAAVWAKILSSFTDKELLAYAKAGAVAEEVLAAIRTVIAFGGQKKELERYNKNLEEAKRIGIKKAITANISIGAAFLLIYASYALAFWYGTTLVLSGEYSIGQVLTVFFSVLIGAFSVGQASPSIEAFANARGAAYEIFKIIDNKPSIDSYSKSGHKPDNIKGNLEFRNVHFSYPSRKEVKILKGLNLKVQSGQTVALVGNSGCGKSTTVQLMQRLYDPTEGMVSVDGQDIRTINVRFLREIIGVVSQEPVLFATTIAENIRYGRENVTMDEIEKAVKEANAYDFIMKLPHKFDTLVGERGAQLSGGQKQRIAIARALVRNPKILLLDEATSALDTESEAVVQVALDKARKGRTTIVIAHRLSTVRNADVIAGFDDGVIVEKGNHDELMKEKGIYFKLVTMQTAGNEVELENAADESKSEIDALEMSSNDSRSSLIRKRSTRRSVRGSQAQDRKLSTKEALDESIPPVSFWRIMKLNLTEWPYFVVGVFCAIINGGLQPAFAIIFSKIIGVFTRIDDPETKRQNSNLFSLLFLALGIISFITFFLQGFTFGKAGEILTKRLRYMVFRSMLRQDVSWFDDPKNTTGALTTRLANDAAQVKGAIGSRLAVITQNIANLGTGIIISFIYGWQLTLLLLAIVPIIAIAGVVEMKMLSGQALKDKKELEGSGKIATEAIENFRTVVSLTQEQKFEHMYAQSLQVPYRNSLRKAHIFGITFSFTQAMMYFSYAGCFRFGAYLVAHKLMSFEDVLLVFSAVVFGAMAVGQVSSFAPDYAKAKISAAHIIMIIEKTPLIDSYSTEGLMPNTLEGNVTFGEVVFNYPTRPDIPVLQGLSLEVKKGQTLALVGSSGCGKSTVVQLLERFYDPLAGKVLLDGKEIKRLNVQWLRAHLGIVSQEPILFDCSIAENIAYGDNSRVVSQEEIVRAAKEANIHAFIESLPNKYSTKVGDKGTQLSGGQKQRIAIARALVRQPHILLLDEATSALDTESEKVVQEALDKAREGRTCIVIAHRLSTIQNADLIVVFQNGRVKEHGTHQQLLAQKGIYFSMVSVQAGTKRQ

Biological target: P-glycoprotein-GFP (Homo sapiens, UniProt P08183)
Settings: 50 nM in D-PBS-glucose, 10 min, room temperature

substrate loading in P-glycoprotein-GFP-expressing cells: complete extrusion of TMRE
substrate loading in nontransfected cells: high dye loading
Substance: tetramethyl-rhodamine-esther [TMRE]
